Target: GST-tagged full-length human CK1α (Homo sapiens (Human), UniProt P48729)
Assay: Kinase enzymatic assay, mobility shift on LabChip system (AC50)
Format: biochemical
Details: mean AC50; 5 μM ATP; 1 μM Profiler Pro FL-Peptide 16 substrate
Method: Enzymatic assays were performed using a mobility shift assay on the LabChip system. Purified kinase protein was incubated with ATP, substrate, and assay buffer (20 mM Hepes—pH 7.5; 5 mM MgCl2, and 0.01% Triton X-100). The assay reaction was initiated with 5 μM ATP and with each compound present. Compounds were tested at the KM,ATP for the protein target (GST-tagged full-length human CK1α, available from Carna Biosciences, Japan) or over a range of ATP concentrations between 5 μM and 9 μM. […] AC50 values were determined using phosphorylated and unphosphorylated substrates.

Sequences of proteins named here, by UniProt entry; tags and fusion partners are left off. A change or cut given only in a name is not applied to a line headed by its entry.
UniProt P48729: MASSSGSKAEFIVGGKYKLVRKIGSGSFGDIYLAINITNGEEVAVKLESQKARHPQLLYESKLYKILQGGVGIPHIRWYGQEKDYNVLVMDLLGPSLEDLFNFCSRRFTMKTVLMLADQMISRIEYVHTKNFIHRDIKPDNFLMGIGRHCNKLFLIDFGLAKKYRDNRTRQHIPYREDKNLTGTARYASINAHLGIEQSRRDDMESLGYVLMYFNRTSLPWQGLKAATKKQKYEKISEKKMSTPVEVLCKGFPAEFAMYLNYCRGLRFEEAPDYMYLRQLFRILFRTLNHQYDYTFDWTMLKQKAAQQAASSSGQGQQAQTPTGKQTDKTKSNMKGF

(Z)-cyclohexylmethyl 2-cyano-2-(5-phenyl-3-(piperazin-1-yl)pyrazin-2(1H)-ylidene)acetate or (Z)-cyclohexylmethyl 2-cyano-2-(6-phenyl-3-(piperazin-1-yl)pyrazin-2(1H)-ylidene)acetate
AC50: 0.136 µM

Reference: patent publication US11633415B2, “Compounds and methods useful for treating or preventing cancers” (priority 2017, dated 2023)
